Article PMC7281150, “Inspired by Sea Urchins: Warburg Effect Mediated Selectivity of Novel Synthetic Non-Glycoside 1,4-Naphthoquinone-6S-Glucose Conjugates in Prostate Cancer” (Marine Drugs, 2020)
Like-named read-outs stand apart in the source and are kept apart here.

What was measured:
[1] = in vitro; type: cell-based; conditions: human, PC-3, 10 μM, read-out: Viable cells (Annexin-V-FITC(–)/PI(–), LL quadrant)
[2] = in vitro; type: cell-based; conditions: human, 22Rv1, 10 μM, read-out: Viable cells (Annexin-V-FITC(–)/PI(–), LL quadrant)
Description: To examine induction of drug-induced apoptosis FACS-based analysis with Annexin-V-FITC and propidium iodide (PI) double staining was performed as previously described. Cells were seeded in 6-well plates (2 × 10^5 cells/well) and incubated overnight. Treatment with the substances was performed in 2 mL fresh culture media/well for 48 h. Cells were harvested by trypsination, stained with Annexin-V-FITC and PI for 15 min, and analyzed using FACS Calibur (BD Bioscience, San Jose, CA, USA). The results were quantified using BD Bioscience Cell Quest Pro v.5.2.1. software (BD Bioscience, San Jose, CA, USA).

## COc1ccc(C[C@H]2NC[C@H](O)[C@H]2OC(C)=O)cc1 [Aniso, Anisomycin, reference compound]
[1]; + zVAD (100 µM, 1 h pre-treatment)
  viability at 48 h, 10 µM: 91.7 ± 2.6%
[1]; - zVAD
  viability at 48 h, 10 µM: 85.6 ± 1%
[2]
  viability at 48 h, 10 µM: 47.5 ± 4.1%
